The record followed here is patent US4956294A, “Culture of Streptoverticillium synroense for producing an antibacterial” (Merck & Co., Inc., priority 1989, dated 1990).

Molecules are shown by their SMILES. Values after ≈ are worked out from the molar mass of the structure shown.

What all share (type): cell-based
For one test, the system named is S. aureus 2865. The test is described as follows: Agar dilution, trypticase soy agar. As to conditions: Staphylococcus aureus, inoculum 10^4 cfu/spot, 35° C., 20 hours.
A further test relates to E. coli DC2 4353. As to the kind of experiment: Agar dilution, trypticase soy agar. As to conditions: Escherichia coli, DC24353; inoculum 10^4 cfu/spot, 35° C., 20 hours.
A further test deals with S. aureus 2868. The test is described as follows: Agar dilution, trypticase soy agar. To be noted: Staphylococcus aureus, inoculum 10^4 cfu/spot, 35° C., 20 hours.
Test [1] has as its system Strep. faecalis 2864. As to the kind of experiment: Agar dilution, antagonist-free medium. As to conditions: Enterococcus faecalis, inoculum 10^4 cfu/spot, 35° C., 20 hours.
The test system of test [2] is Strep. faecalis 2864. As to the kind of experiment: Agar dilution, trypticase soy agar. To be noted: Enterococcus faecalis, inoculum 10^4 cfu/spot, 35° C., 20 hours.
A further test deals with Ps. aeruginosa 4279. As to the kind of experiment: Agar dilution, trypticase soy agar. As to conditions: Pseudomonas aeruginosa, inoculum 10^4 cfu/spot, 35° C., 20 hours.
The test system of another test is Ent. aerogenes 2828. As to the kind of experiment: Agar dilution, trypticase soy agar. As to conditions: Klebsiella aerogenes, inoculum 10^4 cfu/spot, 35° C., 20 hours.
The next test deals with Ps. aeruginosa 2835. The test is described as follows: Agar dilution, trypticase soy agar. As to conditions: Pseudomonas aeruginosa, inoculum 10^4 cfu/spot, 35° C., 20 hours.

As to `CO[C@@]1(NC(=O)Cc2cccs2)C(=O)N2C(C(=O)O)=C(COC(N)=O)CS[C@@H]21` [CEFOXITIN, Cefoxitin, reference compound], the minimum inhibitory concentration (MIC) was found to be 2 µg/mL (≈ 4.68 µM) against S. aureus 2865, 2 µg/mL (≈ 4.68 µM) in the test with E. coli DC2 4353 and 4 µg/mL (≈ 9.36 µM) with S. aureus 2868.
`N[C@@H]1CONC1=O` [D-Cycloserine, D-cycloserine, reference compound]: the MIC in the test with Strep. faecalis 2864 [1] was determined as 4 µg/mL (≈ 39.2 µM).
With `C[C@H](CNC(=O)[C@H]1N=C(c2cccc(O)c2O)O[C@@H]1C)C(=O)N[C@@H]1CCCN(O)C1=O` [L-654,040, 2-(2,3-dihydroxyphenyl)-4,5-dihydro-N-[3-[(1-hydroxy-2-oxo-3(R)-piperidinyl)-amino]-2(R)-methyl-3-oxopropyl]-5R-methyl-4S-oxazolecarboxamide], the MIC in the test on Strep. faecalis 2864 [2] is over 128 µg/mL; with Ps. aeruginosa 4279, over 128 µg/mL; in the test with S. aureus 2865, 64 µg/mL (≈ 147 µM); in the test on Ent. aerogenes 2828 it was over 128 µg/mL; in the test with Strep. faecalis 2864 [1], over 256 µg/mL; in the test on Ps. aeruginosa 2835, over 128 µg/mL.
